## scFv variants of Ab-14 (heavy chain) against a SARS-CoV-2 spike peptide

The measurements come from Engelhart et al. 2022 (doi:10.1038/s41597-022-01779-4) through the FLAb antibody collection.

Antigen: PDVDLGDISGINAS, a 14-residue peptide of the SARS-CoV-2 spike HR2 region.

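Phage display of a naive human antibody library on the peptide gave the parent. Variants in AAYL49 differ from the parent at up to three CDR positions; double and triple changes were sampled at random. The scFvs were displayed on barcoded MATa yeast, the peptide on MATalpha yeast. The frequency of each diploid, read from paired DNA barcodes, reflects how well the two displayed proteins bind. Read counts were normalised to the haploid input and turned into Kd by a linear fit to BCL2-family pairs of known affinity, for each replicate. The assay was run in three technical replicates.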

Parent scFv Ab-14: VH joined to VL by a 15-residue (Gly4Ser)3 linker. Changes lie in the heavy chain CDRs alone.
VH: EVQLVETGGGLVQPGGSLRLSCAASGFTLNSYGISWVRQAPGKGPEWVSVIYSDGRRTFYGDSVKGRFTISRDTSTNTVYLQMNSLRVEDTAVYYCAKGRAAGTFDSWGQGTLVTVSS
VL: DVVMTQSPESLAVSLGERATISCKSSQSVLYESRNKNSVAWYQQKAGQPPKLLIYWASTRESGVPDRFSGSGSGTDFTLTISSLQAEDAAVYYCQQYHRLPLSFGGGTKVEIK

Substitutions are numbered in sequence along the VH above, starting at 1 (not Kabat). Affinities are written as log10 Kd with Kd in nM; a lower number is a better binder. Where no diploid with the target was found in that replicate, the entry reads "nd": below detection, most likely a poor binder, though not proof of it. As a blank, each scFv also met three strains without target: over library AAYL49, 15% of these pairings were detected, typically at 4.06 and seldom below 2.83. For each scFv, signals with the empty controls are counted beside the result, with their mean in brackets. Parent in this assay: reference entry 0.65, copy in this library 4.11 (one replicate of three).

changes	log10 Kd (nM) by replicate	empty controls
R56I A101G T104R	1.52 / 1.77 / 2.17	0 of 9
R56V A101P D106H	nd / 3.34 / nd	0 of 9
L29H N30H A102W	nd / nd / nd	1 of 9 (2.27)
F27Y Y32M G55C	nd / nd / nd	0 of 9
I51M K65W G103I	nd / nd / nd	0 of 9
S35Y D54V S63F	nd / nd / nd	1 of 9 (4.03)
G26M T58V	3.33 / 3.28 / 3.76	2 of 9 (4.24)
T58Q Y60E R100M	nd / nd / nd	0 of 9
F59W D62C K65C	nd / nd / nd	2 of 9 (4.26)
V50C D54Q G99A	nd / nd / nd	0 of 9
Y52T T58W A102F	nd / nd / nd	1 of 9 (2.66)
Y32G K65R A102K	nd / 3.81 / nd	2 of 9 (4.98)
G33I G99L	nd / nd / nd	2 of 9 (3.34)
L29S G103D	nd / nd / nd	0 of 9
R56V G61V T104M	1.95 / 1.69 / 2.38	0 of 9
Y60F T104K	nd / nd / nd	0 of 9
Y32P I34K	nd / nd / nd	1 of 9 (2.68)
F27P S53L Y60N	nd / nd / nd	1 of 9 (3.83)
S35G R56S T104M	5.61 / nd / nd	2 of 9 (3.50)
T58K G103R F105P	nd / nd / nd	1 of 9 (2.17)
F27W N30K R100K	nd / nd / nd	0 of 9
S53L V64N A102M	nd / nd / nd	0 of 9
G26T L29E S53Q	nd / 3.84 / nd	2 of 9 (4.38)
S31C S35M S63R	5.61 / nd / nd	3 of 9 (4.60)
I34K F59S A101M	nd / nd / nd	3 of 9 (3.90)
S31D G55R G61K	nd / nd / nd	1 of 9 (4.30)
L29S V64Y A101R	nd / nd / nd	1 of 9 (4.21)
N30T K65R A102S	3.23 / 2.41 / 2.91	2 of 9 (3.79)
G26L I34R A101E	0.21 / 0.52 / 0.30	1 of 9 (5.14)
G26K G33N G103A	3.73 / 3.54 / nd	1 of 9 (4.16)
V50E T58D S107E	nd / nd / nd	1 of 9 (3.33)
Y52H D54K G55A	nd / nd / nd	0 of 9
G55Q R100G D106V	nd / nd / nd	0 of 9
Y32I I51S D106I	nd / nd / nd	0 of 9
N30C G55A R57M	nd / nd / nd	0 of 9
Y32N G55P F59I	nd / nd / nd	0 of 9
S35R I51A R56M	nd / nd / nd	0 of 9
G26M G55Y D62I	nd / nd / nd	0 of 9
S31I D62H G99Q	nd / nd / nd	1 of 9 (5.04)
F27E T58M K65N	2.95 / 2.89 / 3.81	3 of 9 (4.83)
S35D T58D V64E	nd / nd / nd	0 of 9
Y32Q R57N R100I	3.67 / 4.07 / 3.65	3 of 9 (3.92)
F27N G55A G61M	4.62 / nd / 4.22	6 of 9 (4.20)
L29Y N30E A101N	3.08 / 3.56 / 4.42	3 of 9 (4.85)
T28E L29P G103T	nd / 3.67 / nd	3 of 9 (3.59)
F27I D62V G103W	4.59 / nd / nd	0 of 9
F59G S63H T104E	nd / nd / nd	1 of 9 (3.83)
R56K T58A V64R	nd / 5.27 / nd	2 of 9 (3.91)